Values of other authors as cited in paper PMC5641599 (Molecular Metabolism, 2017).
Read-outs that look alike come from different tables or passages of the source.

The chains behind the UniProt entries cited, without tags or fusion partners. Residues count along the entry.
UniProt P32245, whole entry A244E: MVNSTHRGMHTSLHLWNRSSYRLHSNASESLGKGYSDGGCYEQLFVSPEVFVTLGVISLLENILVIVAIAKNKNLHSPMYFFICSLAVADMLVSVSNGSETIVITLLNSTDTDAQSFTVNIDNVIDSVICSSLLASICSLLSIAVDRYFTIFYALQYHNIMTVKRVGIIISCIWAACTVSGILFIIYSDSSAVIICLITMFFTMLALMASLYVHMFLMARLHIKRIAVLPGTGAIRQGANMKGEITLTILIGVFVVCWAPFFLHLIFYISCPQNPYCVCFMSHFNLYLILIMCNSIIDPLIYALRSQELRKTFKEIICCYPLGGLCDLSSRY
UniProt P32245, whole entry R165W: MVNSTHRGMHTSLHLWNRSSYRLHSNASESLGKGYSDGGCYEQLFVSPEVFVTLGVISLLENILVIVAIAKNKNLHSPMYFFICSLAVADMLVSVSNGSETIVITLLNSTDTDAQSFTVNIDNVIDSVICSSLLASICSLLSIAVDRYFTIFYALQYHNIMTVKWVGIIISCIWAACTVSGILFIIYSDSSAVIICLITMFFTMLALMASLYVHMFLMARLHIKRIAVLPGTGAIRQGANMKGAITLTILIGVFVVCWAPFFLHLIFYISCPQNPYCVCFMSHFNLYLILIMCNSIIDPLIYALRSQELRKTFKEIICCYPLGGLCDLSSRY
UniProt P32245, whole entry N274S: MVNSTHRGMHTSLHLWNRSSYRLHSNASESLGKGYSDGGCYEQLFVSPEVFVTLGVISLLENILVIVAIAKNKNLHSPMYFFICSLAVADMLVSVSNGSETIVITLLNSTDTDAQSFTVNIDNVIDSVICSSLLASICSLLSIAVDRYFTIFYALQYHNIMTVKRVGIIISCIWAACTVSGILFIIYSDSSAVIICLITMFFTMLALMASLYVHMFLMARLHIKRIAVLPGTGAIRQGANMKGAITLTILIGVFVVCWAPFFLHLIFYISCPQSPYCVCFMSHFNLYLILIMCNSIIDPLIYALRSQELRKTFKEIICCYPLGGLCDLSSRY
UniProt P32245, 1-286 limits assumed: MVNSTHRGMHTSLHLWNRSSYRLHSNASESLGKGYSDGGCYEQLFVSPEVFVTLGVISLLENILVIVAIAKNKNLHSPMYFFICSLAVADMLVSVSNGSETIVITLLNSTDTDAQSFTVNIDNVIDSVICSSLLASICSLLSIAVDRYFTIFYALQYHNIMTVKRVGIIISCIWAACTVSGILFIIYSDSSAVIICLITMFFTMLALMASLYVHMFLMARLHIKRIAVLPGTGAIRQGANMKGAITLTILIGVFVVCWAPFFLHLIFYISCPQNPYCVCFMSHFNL
UniProt P32245, whole entry R7C: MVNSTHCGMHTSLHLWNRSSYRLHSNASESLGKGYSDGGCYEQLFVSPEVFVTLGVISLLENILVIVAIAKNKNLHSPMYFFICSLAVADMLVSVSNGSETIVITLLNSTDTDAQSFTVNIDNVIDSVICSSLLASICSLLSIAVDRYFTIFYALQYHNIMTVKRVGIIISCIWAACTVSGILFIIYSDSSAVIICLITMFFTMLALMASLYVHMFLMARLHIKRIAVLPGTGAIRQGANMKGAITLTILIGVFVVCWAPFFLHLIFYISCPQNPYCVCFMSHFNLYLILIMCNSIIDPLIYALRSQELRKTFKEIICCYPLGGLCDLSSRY
UniProt P32245, whole entry N62S: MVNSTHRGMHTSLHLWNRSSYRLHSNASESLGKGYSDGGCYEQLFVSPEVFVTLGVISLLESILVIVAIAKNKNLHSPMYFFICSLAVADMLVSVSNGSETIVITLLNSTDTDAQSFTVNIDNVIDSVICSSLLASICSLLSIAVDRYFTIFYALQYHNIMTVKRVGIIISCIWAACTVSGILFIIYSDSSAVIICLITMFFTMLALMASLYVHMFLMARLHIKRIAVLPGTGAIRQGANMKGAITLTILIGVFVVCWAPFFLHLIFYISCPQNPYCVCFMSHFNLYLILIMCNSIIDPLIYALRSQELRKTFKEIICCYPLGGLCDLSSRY
UniProt P32245, whole entry H158R: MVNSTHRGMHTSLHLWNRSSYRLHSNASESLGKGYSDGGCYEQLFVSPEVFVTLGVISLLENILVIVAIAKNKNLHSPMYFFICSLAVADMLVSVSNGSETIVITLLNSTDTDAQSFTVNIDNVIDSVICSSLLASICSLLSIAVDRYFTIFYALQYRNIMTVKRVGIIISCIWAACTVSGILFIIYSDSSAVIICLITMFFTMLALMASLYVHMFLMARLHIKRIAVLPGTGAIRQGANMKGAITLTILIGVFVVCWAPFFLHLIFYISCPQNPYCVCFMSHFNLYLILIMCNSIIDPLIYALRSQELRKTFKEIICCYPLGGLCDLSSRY
UniProt P32245, whole entry R18H: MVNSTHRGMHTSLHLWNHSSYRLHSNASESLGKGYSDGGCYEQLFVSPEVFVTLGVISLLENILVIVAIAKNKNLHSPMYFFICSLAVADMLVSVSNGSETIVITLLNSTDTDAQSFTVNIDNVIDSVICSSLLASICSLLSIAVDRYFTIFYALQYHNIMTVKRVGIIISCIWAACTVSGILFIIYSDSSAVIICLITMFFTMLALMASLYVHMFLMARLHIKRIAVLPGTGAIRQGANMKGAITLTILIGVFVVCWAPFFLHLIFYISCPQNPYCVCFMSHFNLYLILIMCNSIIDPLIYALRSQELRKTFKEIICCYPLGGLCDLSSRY
UniProt P32245, whole entry A219V: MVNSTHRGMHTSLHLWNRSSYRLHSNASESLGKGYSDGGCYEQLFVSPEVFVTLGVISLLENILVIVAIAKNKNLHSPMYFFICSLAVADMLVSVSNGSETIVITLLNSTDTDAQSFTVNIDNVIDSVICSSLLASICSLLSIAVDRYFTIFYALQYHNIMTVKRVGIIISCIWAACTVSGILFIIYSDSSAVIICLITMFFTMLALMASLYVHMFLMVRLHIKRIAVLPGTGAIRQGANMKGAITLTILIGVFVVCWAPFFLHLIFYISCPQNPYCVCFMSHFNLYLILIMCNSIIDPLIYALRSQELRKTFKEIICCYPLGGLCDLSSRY
UniProt P32245, whole entry F202L: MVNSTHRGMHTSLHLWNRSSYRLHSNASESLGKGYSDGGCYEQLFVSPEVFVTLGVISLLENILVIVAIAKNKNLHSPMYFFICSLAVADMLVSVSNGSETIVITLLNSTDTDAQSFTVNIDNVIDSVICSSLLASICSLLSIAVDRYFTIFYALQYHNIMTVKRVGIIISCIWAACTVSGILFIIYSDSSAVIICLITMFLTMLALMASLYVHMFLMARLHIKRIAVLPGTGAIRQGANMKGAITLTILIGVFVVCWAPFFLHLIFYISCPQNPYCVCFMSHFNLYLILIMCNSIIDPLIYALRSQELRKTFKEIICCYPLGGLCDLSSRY
UniProt P32245, whole entry I69T: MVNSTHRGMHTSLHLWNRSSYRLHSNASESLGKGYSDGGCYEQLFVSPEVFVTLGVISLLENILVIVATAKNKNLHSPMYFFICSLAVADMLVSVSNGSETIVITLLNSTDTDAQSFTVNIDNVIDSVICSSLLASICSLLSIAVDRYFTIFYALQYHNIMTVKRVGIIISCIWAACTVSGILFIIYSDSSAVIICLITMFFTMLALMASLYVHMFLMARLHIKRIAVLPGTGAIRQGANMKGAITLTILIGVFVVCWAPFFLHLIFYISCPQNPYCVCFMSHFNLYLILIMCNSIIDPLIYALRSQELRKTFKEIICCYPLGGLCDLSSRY
UniProt P32245, whole entry S295P: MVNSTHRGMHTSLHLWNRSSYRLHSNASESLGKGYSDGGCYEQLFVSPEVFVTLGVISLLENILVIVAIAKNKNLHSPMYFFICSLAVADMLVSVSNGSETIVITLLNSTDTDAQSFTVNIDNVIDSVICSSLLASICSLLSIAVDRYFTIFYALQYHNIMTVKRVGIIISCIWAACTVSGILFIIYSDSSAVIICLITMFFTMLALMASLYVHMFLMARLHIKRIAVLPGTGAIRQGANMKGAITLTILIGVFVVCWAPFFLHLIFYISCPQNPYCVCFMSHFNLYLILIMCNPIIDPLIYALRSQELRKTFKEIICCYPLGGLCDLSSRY
UniProt P32245, whole entry I289L: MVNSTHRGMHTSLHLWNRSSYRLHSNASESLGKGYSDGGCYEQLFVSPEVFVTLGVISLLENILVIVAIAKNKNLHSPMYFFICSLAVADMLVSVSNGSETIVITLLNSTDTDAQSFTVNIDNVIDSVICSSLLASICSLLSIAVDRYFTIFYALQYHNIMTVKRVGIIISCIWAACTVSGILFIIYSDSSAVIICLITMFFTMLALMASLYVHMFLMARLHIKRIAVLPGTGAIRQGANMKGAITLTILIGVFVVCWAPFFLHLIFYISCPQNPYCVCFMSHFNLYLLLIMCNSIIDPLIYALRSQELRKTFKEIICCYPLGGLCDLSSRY
UniProt P32245, whole entry I301T: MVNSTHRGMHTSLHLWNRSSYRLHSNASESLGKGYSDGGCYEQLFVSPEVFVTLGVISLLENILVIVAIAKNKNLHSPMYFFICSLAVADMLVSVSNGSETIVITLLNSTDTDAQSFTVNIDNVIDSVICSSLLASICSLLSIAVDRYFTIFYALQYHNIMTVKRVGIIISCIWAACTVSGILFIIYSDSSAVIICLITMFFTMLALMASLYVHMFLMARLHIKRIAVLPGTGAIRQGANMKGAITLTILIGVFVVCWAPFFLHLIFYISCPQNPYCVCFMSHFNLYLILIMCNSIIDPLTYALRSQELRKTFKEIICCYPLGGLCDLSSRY
UniProt P32245, whole entry Q156R: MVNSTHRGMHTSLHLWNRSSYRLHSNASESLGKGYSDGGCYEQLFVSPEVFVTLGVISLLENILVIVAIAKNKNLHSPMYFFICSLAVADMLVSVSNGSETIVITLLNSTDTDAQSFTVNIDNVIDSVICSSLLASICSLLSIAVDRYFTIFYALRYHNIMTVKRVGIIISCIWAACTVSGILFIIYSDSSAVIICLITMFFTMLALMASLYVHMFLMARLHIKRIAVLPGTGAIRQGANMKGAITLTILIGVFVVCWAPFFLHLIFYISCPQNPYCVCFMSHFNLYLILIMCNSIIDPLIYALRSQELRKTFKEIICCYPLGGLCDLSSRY
UniProt P32245, whole entry T11A: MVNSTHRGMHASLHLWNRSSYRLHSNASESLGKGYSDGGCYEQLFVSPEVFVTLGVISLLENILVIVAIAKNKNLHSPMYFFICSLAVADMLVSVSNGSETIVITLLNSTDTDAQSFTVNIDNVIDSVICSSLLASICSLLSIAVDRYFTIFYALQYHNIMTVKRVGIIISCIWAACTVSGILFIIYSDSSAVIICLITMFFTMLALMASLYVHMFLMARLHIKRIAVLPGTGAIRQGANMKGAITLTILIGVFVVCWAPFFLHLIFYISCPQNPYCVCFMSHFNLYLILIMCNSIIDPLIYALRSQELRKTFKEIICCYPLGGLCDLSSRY
UniProt P32245, whole entry A70T: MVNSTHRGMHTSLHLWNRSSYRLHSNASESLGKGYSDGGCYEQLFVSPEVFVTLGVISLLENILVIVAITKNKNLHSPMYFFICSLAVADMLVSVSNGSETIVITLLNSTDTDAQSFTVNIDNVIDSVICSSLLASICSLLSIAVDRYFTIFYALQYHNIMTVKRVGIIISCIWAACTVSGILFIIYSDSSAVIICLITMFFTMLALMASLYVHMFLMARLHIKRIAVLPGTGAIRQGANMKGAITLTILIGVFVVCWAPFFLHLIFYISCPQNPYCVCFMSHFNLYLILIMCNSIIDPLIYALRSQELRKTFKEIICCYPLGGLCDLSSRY
UniProt P32245, whole entry I251L: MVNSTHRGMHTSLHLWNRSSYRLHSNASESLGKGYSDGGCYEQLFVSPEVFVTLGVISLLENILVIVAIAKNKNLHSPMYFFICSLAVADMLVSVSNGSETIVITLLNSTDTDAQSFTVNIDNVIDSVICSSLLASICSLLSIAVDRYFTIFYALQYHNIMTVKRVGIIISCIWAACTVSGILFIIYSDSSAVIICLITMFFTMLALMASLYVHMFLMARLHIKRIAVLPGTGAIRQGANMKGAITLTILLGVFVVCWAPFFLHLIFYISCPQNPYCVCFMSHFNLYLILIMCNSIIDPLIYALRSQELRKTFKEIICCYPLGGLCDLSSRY
UniProt P32245, whole entry A154D: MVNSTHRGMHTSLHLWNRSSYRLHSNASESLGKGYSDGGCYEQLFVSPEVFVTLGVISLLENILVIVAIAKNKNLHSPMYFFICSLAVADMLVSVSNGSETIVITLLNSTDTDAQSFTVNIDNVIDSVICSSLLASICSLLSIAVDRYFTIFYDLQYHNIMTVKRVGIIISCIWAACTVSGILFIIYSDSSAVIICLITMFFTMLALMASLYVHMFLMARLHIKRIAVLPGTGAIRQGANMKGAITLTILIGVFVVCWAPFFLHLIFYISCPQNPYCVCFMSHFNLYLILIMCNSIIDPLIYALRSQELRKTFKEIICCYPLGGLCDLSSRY
UniProt P32245, whole entry E61K: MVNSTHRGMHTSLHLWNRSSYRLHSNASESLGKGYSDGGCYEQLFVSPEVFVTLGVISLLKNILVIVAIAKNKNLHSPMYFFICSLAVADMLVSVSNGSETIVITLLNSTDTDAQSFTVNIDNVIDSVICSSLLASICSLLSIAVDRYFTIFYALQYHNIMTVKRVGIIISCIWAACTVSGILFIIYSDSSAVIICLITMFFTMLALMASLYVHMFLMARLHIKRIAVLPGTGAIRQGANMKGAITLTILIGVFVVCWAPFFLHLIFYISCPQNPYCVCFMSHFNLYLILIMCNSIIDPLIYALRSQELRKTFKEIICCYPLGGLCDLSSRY

Assays:
[1] = test system: MC4R variants; details: cited from earlier work
[2] = biological target: MC4R variants (Homo sapiens, UniProt P32245, A244E); details: MC4R A244E; ref Xiang Z, Biochemistry, 2006; cited from earlier work
[3] = biological target: MC4R variants (Homo sapiens, UniProt P32245, R165W); details: MC4R R165W; ref Xiang Z, Biochemistry, 2006; cited from earlier work
[4] = biological target: MC4R variants (Homo sapiens, UniProt P32245, N274S); details: MC4R N274S; ref Xiang Z, Biochemistry, 2006; cited from earlier work
[5] = biological target: MC4R variants (Homo sapiens, UniProt P32245); details: MC4R Y287X; ref Xiang Z, Biochemistry, 2006; cited from earlier work
[6] = biological target: MC4R variants (Homo sapiens, UniProt P32245, R7C); details: MC4R R7C; COS-7 cell line; ref Hinney A, J Clin Endocrinol Metab, 2006; cited from earlier work
[7] = biological target: MC4R variants (Homo sapiens, UniProt P32245, N62S); details: MC4R N62S; ref Xiang Z, Biochemistry, 2006; cited from earlier work
[8] = biological target: MC4R variants (Homo sapiens, UniProt P32245, H158R); details: MC4R H158R; COS-7 cell line; ref Hinney A, J Clin Endocrinol Metab, 2006; cited from earlier work
[9] = biological target: MC4R variants (Homo sapiens, UniProt P32245, R18H); details: MC4R R18H; ref Xiang Z, Biochemistry, 2010; cited from earlier work
[10] = biological target: MC4R variants (Homo sapiens, UniProt P32245, A219V); details: MC4R A219V; ref Xiang Z, Biochemistry, 2010; cited from earlier work
[11] = biological target: MC4R variants (Homo sapiens, UniProt P32245, F202L); details: MC4R F202L, cited from earlier work
[12] = biological target: MC4R variants (Homo sapiens, UniProt P32245, I69T); details: MC4R I69T; ref Xiang Z, Biochemistry, 2010; cited from earlier work
[13] = biological target: MC4R variants (Homo sapiens, UniProt P32245, S295P); details: MC4R S295P; ref Xiang Z, Biochemistry, 2010; cited from earlier work
[14] = biological target: MC4R variants (Homo sapiens, UniProt P32245, I289L); details: MC4R I289L; ref Wang ZQ, Biochim Biophys Acta, 2011; cited from earlier work
[15] = biological target: MC4R variants (Homo sapiens, UniProt P32245, I301T); details: MC4R I301T; ref Xiang Z, Biochemistry, 2006; cited from earlier work
[16] = biological target: MC4R variants (Homo sapiens, UniProt P32245, Q156R); details: MC4R Q156R; COS-7 cell line; ref Hinney A, J Clin Endocrinol Metab, 2006; cited from earlier work
[17] = biological target: MC4R variants (Homo sapiens, UniProt P32245, T11A); details: MC4R T11A; ref Xiang Z, Biochemistry, 2006; cited from earlier work
[18] = biological target: MC4R variants (Homo sapiens, UniProt P32245, A70T); details: MC4R A70T; COS-7 cell line; ref Hinney A, J Clin Endocrinol Metab, 2006; cited from earlier work
[19] = biological target: MC4R variants (Homo sapiens, UniProt P32245, I251L); details: MC4R I251L; ref Xiang Z, Biochemistry, 2006; cited from earlier work
[20] = biological target: MC4R variants (Homo sapiens, UniProt P32245, A154D); details: MC4R A154D; ref Xiang Z, Biochemistry, 2010; cited from earlier work
[21] = biological target: MC4R variants (Homo sapiens, UniProt P32245, E61K); details: MC4R E61K; ref Xiang Z, Biochemistry, 2010; cited from earlier work
[22] = biological target: MC4R variants (Homo sapiens, UniProt P32245, E308K); details: MC4R E308K; ref Xiang Z, Biochemistry, 2010; cited from earlier work
[23] = biological target: MC4R variants (Homo sapiens, UniProt P32245, G231S); details: MC4R G231S; ref Xiang Z, Biochemistry, 2010; cited from earlier work
[24] = biological target: MC4R variants (Homo sapiens, UniProt P32245, I317V); details: MC4R I317V; ref Xiang Z, Biochemistry, 2010; cited from earlier work
[25] = biological target: MC4R variants (Homo sapiens, UniProt P32245, V253I); details: MC4R V253I; ref Xiang Z, Biochemistry, 2006; cited from earlier work
[26] = biological target: MC4R variants (Homo sapiens, UniProt P32245, G231V); details: MC4R G231V; ref Wang ZQ, Biochim Biophys Acta, 2011; cited from earlier work
[27] = biological target: MC4R variants (Homo sapiens, UniProt P32245, C40Y); details: MC4R C40Y; COS-7 cell line; ref Hughes DA, Hum Genet, 2009; cited from earlier work

**Q.** What does the source list for β-MSH?
**A.** Binding IC50 - Ligand no.2 (WT fold) ([1]; MC4R D146N, ref Wang ZQ, Biochim Biophys Acta, 2011): 0.0443 WT fold; Binding IC50 - Ligand no.2 (WT fold) ([1]; MC4R F201L, ref Wang ZQ, Biochim Biophys Acta, 2011): 0.58 WT fold; Binding IC50 - Ligand no.2 (WT fold) ([1]; MC4R G231V, ref Wang ZQ, Biochim Biophys Acta, 2011): 0.96 WT fold; Binding IC50 - Ligand no.2 (WT fold) ([1]; MC4R I186V, ref Wang ZQ, Biochim Biophys Acta, 2011): 0.73 WT fold; Binding IC50 - Ligand no.2 (WT fold) ([1]; MC4R I195S, ref Wang ZQ, Biochim Biophys Acta, 2011): 0.39 WT fold; Binding IC50 - Ligand no.2 (WT fold) ([1]; MC4R T248A, ref Huang H, J Mol Endocrinol, 2012): 0.75 WT fold; cAMP EC50 - Ligand no.2 (WT fold) [2]: 2.21 WT fold; cAMP EC50 - Ligand no.2 (WT fold) [3]: 18.83 WT fold; cAMP EC50 (WT fold) [4]: 0.86 WT fold; cAMP EC50 - Ligand no.2 [5]: 40.48 WT fold; cAMP EC50 - Ligand no.2 [6]: 3.00 WT fold; cAMP EC50 (WT fold) [7]: 350.00 WT fold; cAMP EC50 - Ligand no.2 (WT fold) [8]: 0.11 WT fold; cAMP EC50 - Ligand no.2 [9]: 0.33 WT fold; cAMP EC50 - Ligand no.2 (WT fold) [10]: 14.53 WT fold; cAMP EC50 - Ligand no.2 (WT fold) ([11]; COS-7 cell line, ref Hughes DA, Hum Genet, 2009): 1.60 WT fold; cAMP EC50 - Ligand no.2 (WT fold) ([11]; ref Xiang Z, Biochemistry, 2010): 2.83 WT fold; cAMP EC50 (WT fold) [12]: 31.73 WT fold; cAMP EC50 (WT fold) [13]: 2.30 WT fold; cAMP EC50 (WT fold) [14]: 0.39 WT fold; cAMP EC50 (WT fold) [15]: 5.81 WT fold; cAMP EC50 - Ligand no.2 (WT fold) [16]: 0.57 WT fold; cAMP EC50 - Ligand no.2 [17]: 0.38 WT fold; cAMP EC50 (WT fold) [18]: 0.78 WT fold; cAMP EC50 - Ligand no.2 (WT fold) [19]: 1.00 WT fold; cAMP EC50 - Ligand no.2 (WT fold) [20]: 2.23 WT fold; cAMP EC50 (WT fold) [21]: 145.67 WT fold; cAMP EC50 (WT fold) [22]: 2.70 WT fold; cAMP EC50 - Ligand no.2 (WT fold) [23]: 1.37 WT fold; cAMP EC50 (WT fold) [24]: 2.00 WT fold; cAMP EC50 - Ligand no.2 (WT fold) [25]: 1.07 WT fold; cAMP EC50 - Ligand no.2 (WT fold) [26]: 0.55 WT fold; cAMP EC50 - Ligand no.2 [27]: 1.90 WT fold
